Data as given in ChEMBL document CHEMBL5625171, “Design, synthesis, and biological studies of novel sulfonamide derivatives as farnesoid X receptor agonists” (Eur J Med Chem, 2023).
The source made the active and inactive calls.

Legend:
Format in all cases: functional, organism-based
[1] = target: T1, Bile acid receptor (Mus musculus) (UniProt Q60641); experiment: In vivo agonist activity at FXR of western diet/CCl4-induced NASH C57BL/6 mouse model assessed as increase in FXR mRNA level in liver at 20 mg/kg/day, IG treated for 4 weeks measured after 8 hrs of fasting post-last dose by RT-PCR analysis
T1 sequence (whole entry): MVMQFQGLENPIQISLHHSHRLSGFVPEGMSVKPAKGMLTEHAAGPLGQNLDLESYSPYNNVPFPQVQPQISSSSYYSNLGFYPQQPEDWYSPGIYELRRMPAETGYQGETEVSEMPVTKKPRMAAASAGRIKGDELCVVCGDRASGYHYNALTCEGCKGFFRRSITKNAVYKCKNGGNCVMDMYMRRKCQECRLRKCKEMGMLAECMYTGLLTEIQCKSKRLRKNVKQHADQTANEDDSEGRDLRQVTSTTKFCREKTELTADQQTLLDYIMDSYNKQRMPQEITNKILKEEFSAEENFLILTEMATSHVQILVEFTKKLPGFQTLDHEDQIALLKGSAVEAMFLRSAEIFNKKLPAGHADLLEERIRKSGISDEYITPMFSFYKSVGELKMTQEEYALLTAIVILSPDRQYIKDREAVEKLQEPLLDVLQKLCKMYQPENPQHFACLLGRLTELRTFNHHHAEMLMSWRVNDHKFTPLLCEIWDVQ

[2] = target: T1, Bile acid receptor (Mus musculus); experiment: In vivo agonist activity at FXR of western diet/CCl4-induced NASH C57BL/6 mouse model assessed as increase in SHP mRNA level in liver at 20 mg/kg/day, IG treated for 4 weeks measured after 8 hrs of fasting post-last dose by RT-PCR analysis
[3] = target: T1, Bile acid receptor (Mus musculus); experiment: In vivo agonist activity at FXR of western diet/CCl4-induced NASH C57BL/6 mouse model assessed as increase in BSEP mRNA level in liver at 20 mg/kg/day, IG treated for 4 weeks measured after 8 hrs of fasting post-last dose by RT-PCR analysis
[4] = target: T1, Bile acid receptor (Mus musculus); experiment: In vivo agonist activity at FXR of western diet/CCl4-induced NASH C57BL/6 mouse model assessed as increase in OST-beta mRNA level in liver at 20 mg/kg/day, IG treated for 4 weeks measured after 8 hrs of fasting post-last dose by RT-PCR analysis
[5] = target: T1, Bile acid receptor (Mus musculus); experiment: In vivo agonist activity at FXR of western diet/CCl4-induced NASH C57BL/6 mouse model assessed as decrease in CYP7A1 mRNA level in liver at 20 mg/kg/day, IG treated for 4 weeks measured after 8 hrs of fasting post-last dose by RT-PCR analysis

Measured: Activity

CC(C)CN(c1ccc(-c2ccc(OCC(=O)O)c(F)c2)cc1)S(=O)(=O)c1c(Cl)cccc1Cl
active: [1] | [2] | [3] | [4] | [5]
